## Antibody variant affinities, Ab-91 heavy chain, assay 2

The target is the same throughout: PDVDLGDISGINAS, from the HR2 region of SARS-CoV-2 spike.

Each scFv is VL, the linker GGGGSGGGGSGGGGS, VH, as in the parent Ab-91, and differs from it in the CDRs of the heavy chain only.
VL: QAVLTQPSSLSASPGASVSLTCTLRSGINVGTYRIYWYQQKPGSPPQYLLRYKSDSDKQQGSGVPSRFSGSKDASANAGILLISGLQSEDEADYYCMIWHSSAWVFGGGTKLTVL
VH: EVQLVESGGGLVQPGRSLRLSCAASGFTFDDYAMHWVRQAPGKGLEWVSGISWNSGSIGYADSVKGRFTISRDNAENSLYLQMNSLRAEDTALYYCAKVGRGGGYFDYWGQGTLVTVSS

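The parent was found by panning a naive human phage display library on the peptide. Library AAYL51 holds single substitutions and randomly drawn double and triple substitutions in the CDRs. In AlphaSeq, yeast of one mating type display the scFv and yeast of the other type display the target. After mating in shaken culture at 30 °C for 16 h, diploids were selected and their barcode pairs sequenced. The ratio of observed to expected reads was calibrated, replicate by replicate, on BCL2-family standards whose Kd was known from biolayer interferometry. Each pool was mated in three replicate cultures.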

Each variant is given by its three heavy chain CDRs, as the data file delimits them; those of the parent are GFTFDDYAMH, GISWNSGSIGYADSVK, VGRGGGYFDY.
Numbers give log10(Kd / nM), so 0 is 1 nM and 3 is 1 µM. Smaller is tighter.
The mean shown is taken over the replicates in which the pair was detected.
An entry "ND" has no value in the source: the pair was not observed among the diploids in that replicate. This suggests poor binding but is not conclusive.
Nonspecific signal, from three strains lacking the peptide, appeared in 21% of pairings of library AAYL51, centred on 4.54 (5% of these signals below 3.26); values are not corrected for it. Also given: how often the same scFv was detected with the empty control strains, with their mean in brackets.

| CDR-H1 | CDR-H2 | CDR-H3 | log10 Kd, replicates | mean, log10 nM | control signals |
|---|---|---|---|---|---|
| GFTFMDCAMH | GISWNSGSIGYADSVK | YGRGGGYFDY | 3.14 2.63 1.24 | 2.34 | 0 of 9 |
| GFTFDDYAMM | GISWNRGSIIYADSVK | VGRGGGYFDY | ND ND ND | ND | 0 of 9 |
| GFTFDDYAMH | GNSWNSVSIGYADSVK | VGRGGGYFWY | ND ND ND | ND | 0 of 9 |
| GETNDDYAMH | GISWNSGSIGYADSVK | VGNGGGYFDY | ND ND ND | ND | 0 of 9 |
| GFKFDDYAMH | GISWNSGSIGYADSVK | VGRGLCYFDY | ND ND ND | ND | 0 of 9 |
| GMTFFDYAMH | GISWNSGSIGPADSVK | VGRGGGYFDY | ND ND 2.83 | 2.83 | 2 of 9 (3.92) |
| GFTDDDYAMH | GISWNSGKIGYADSVA | VGRGGGYFDY | 6.85 4.50 ND | 5.68 | 5 of 9 (5.06) |
| GFTFDDYAMH | GISWNKGSIGYADSVY | YGRGGGYFDY | ND ND 4.54 | 4.54 | 1 of 9 (3.70) |
| GFTFDDYAMH | GISLNSGSIGPADSVK | VGRGGGYFDY | 4.45 ND 5.38 | 4.91 | 6 of 9 (5.41) |
| GFNFDDYATH | GISWNSGSIGYADSVK | VGRGGGPFDY | ND ND ND | ND | 1 of 9 (4.58) |
| GFTFDDYAMP | GDSWNSGSIGYADPVK | VGRGGGYFDY | ND ND ND | ND | 3 of 9 (4.13) |
| GFTFDDYAMH | PISWNSGEIGYADSVK | VGGGGGYFDY | 4.10 ND 3.55 | 3.83 | 7 of 9 (4.47) |
| GFTFDDFAMH | GISWNSGHIGYHDSVK | VGRGGGYFDY | ND 4.61 ND | 4.61 | 1 of 9 (4.09) |
| GFTFDDYAEH | GISWNSGSIGYAYSVK | VGVGGGYFDY | ND ND ND | ND | 0 of 9 |
| AFTFDDYAMH | GISWNSGKIGYADSVK | VGRGGGYFDN | ND ND ND | ND | 2 of 9 (4.50) |
| GFTFDDYAMH | GISWWSGSDGYHDSVK | VGRGGGYFDY | 3.45 ND ND | 3.45 | 1 of 9 (4.10) |
| GFTFDDYAMH | GTSWNSLSIGYADPVK | VGRGGGYFDY | 1.98 1.75 1.51 | 1.75 | 2 of 9 (4.91) |
| GFTFDDYAMH | GIFWNSGMIGYADSVK | VGRGIGYFDY | ND 5.38 ND | 5.38 | 0 of 9 |
| GFTFDDYAMR | GISWNSGSIGYADSVK | VGRGCQYFDY | ND ND ND | ND | 0 of 9 |
| RFTFDDYAMH | GISWNSGSAGYADSVK | VGRGGGYFDY | 6.21 6.08 3.35 | 5.21 | 1 of 9 (4.97) |
| GNTFDDGAMH | DISWNSGSIGYADSVK | VGRGGGYFDY | 4.71 4.87 ND | 4.79 | 3 of 9 (4.84) |
| GFTFDDYAMH | GISWYSGSIGNADSVK | VIRGGGYFDY | 3.33 ND ND | 3.33 | 2 of 9 (3.92) |
| GFTFDDYAMH | GISWNSPSIGYADSVK | VKRGWGYFDY | 4.71 5.02 ND | 4.87 | 1 of 9 (3.98) |
| GFTFDDYAMH | GICWNSGSIGYHDSVK | VARGGGYFDY | ND ND ND | ND | 1 of 9 (3.25) |
| GFTNDDDAMH | GISWNSGSIGYADSVK | LGRGGGYFDY | 4.85 ND 5.35 | 5.10 | 2 of 9 (4.77) |
| GFTFDDYAMH | GISWNSGSIGYADSQK | VGMGGGYFDY | ND ND ND | ND | 1 of 9 (5.58) |
| GWTFDDYAMH | GISWNSGWIGYADSVK | VGSGGGYFDY | 4.84 ND ND | 4.84 | 0 of 9 |
| GFTFDDIAMH | GISWNSGSIGYAKSVK | VGRLGGYFDY | ND 5.73 ND | 5.73 | 2 of 9 (4.03) |
| GFTFDDYKMH | GISDNSGSIGYADSVK | VGRGGGYFVY | ND ND ND | ND | 2 of 9 (3.93) |
| GFTFDDYAMH | AISWNSGSIGYADSLK | VGRGGGYGDY | 3.93 ND ND | 3.93 | 4 of 9 (4.64) |
| GFTFDDYAMH | GDSWNSGSIGYADKVK | VGRGGGYSDY | ND ND ND | ND | 2 of 9 (3.99) |
| GFFFDDYAMH | GISWNSGSIGYADSVE | VGRQGGYFDY | 2.59 2.79 2.39 | 2.59 | 1 of 9 (4.52) |
| GFWFDDYIMH | GISWNSGSIGYADSVK | VGRGEGYFDY | 5.07 ND 6.12 | 5.59 | 4 of 9 (4.80) |
| GFTFDDVAMH | GISWNSRSIGYADSVK | VGRGQGYFDY | ND ND 4.33 | 4.33 | 1 of 9 (3.30) |
| GFTFDDYASH | GISWNSGSIGYADSVK | VGRGHGMFDY | ND 6.11 ND | 6.11 | 4 of 9 (4.47) |
| GFTFDDYAIH | GISRNVGSIGYADSVK | VGRGGGYFDY | ND ND ND | ND | 0 of 9 |
| GFTFDDYAMH | GISWYSGSIGYADSVK | IGRGGGYFDY | ND ND ND | ND | 0 of 9 |
| LFTFDDYAMH | GISWNSGSIGYQDSVK | VGRGGGGFDY | 4.12 ND 3.06 | 3.59 | 3 of 9 (4.45) |
| GFTFDDYCMH | GISWNSGSLGYAASVK | VGRGGGYFDY | ND ND ND | ND | 0 of 9 |
| GFTFDDYAMH | GISINSGSIGYADSVK | VKRRGGYFDY | 4.64 ND ND | 4.64 | 2 of 9 (2.96) |
| GFTFDDYAMH | GPKWNSGSIGYADSVK | VGRGGGYFWY | ND 4.77 ND | 4.77 | 0 of 9 |
| GFTFDDYAAH | GISWNSGSIGYADSVK | VTRWGGYFDY | 4.17 5.40 ND | 4.79 | 6 of 9 (4.83) |

For reference, 7 entries of the list once more:

| CDR-H1 | CDR-H2 | CDR-H3 | log10 Kd, replicates | mean, log10 nM | control signals |
|---|---|---|---|---|---|
| GFTFDDYAMH | GISWNSGSIGYADSQK | VGMGGGYFDY | ND ND ND | ND | 1 of 9 (5.58) |
| GFTFDDYAMH | GPKWNSGSIGYADSVK | VGRGGGYFWY | ND 4.77 ND | 4.77 | 0 of 9 |
| GFTFDDYASH | GISWNSGSIGYADSVK | VGRGHGMFDY | ND 6.11 ND | 6.11 | 4 of 9 (4.47) |
| GFTFDDIAMH | GISWNSGSIGYAKSVK | VGRLGGYFDY | ND 5.73 ND | 5.73 | 2 of 9 (4.03) |
| GFTFDDYKMH | GISDNSGSIGYADSVK | VGRGGGYFVY | ND ND ND | ND | 2 of 9 (3.93) |
| GFTFDDYAAH | GISWNSGSIGYADSVK | VTRWGGYFDY | 4.17 5.40 ND | 4.79 | 6 of 9 (4.83) |
| GFTFDDYAMH | AISWNSGSIGYADSLK | VGRGGGYGDY | 3.93 ND ND | 3.93 | 4 of 9 (4.64) |

Values reported by Engelhart et al. 2022, doi:10.1038/s41597-022-01779-4 (FLAb copy).